For six molecules, outcome and AC50 results are on record in PubChem BioAssay (EPA / NIEHS).

In general, AC50 refers to the midpoint of the concentration-response curve, whichever way the signal moves.

This is a selection; strong and weak results do not stand in their true shares. Inconclusive results are not listed. Activity calls are given as the source filed them. How the source made its calls, unless noted: active means hit-call score of the fitted dose curve at least 0.9, where 1 is the maximum; inconclusive means response in the unintended direction; inactive means score below 0.9.

The nature of experiment [1]: IUF_NPC1_cytotoxicity_72hr: Cytotoxicity Assessment at 72 hours in the Leibniz Research Institute for Environmental Medicine (IUF) Neural Progenitor Cell Proliferation Assay (NPC1) (AID 2284332).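 Further: rising LDH signal means more cytotoxicity.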 The procedure, abridged: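 Spheres of primary human neural progenitors are plated one per well on day 0 in growth-factor medium and dosed at once. After three days at 37C, supernatant LDH is measured fluorimetrically via resazurin reduction.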

Experiment [2] can be described thus: CCTE_Mundy_HCI_iCellGluta_NOG_NeuriteCount: CCTE's Neurite Outgrowth Assay in iCellGluta cells for Neurite Count, Mundy Lab (AID 2284342).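 Further: chemical exposure about 48 hours starting 2 hours after plating.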 On the procedure:
CCTE_Mundy_HCI_iCellGluta_NOG is a multiplexed, cell-based-readout assay that uses iCell GlutaNeurons from FUJIFILM Cellular Dynamics, Inc. (FCDI), human glutamatergic enriched neurons derived from induced pluripotent stem (iPS) cells, with measurements taken at 50.33 hours after chemical dosing in a microplate: 96-well plate.CCTE_Mundy_HCI_iCellGluta_NOG_NeuriteCount is one of four components of the CCTE_Mundy_HCI_iCellGluta_NOG assay. It measures neurite outgrowth related to number of neurites using High Content Imaging of fluorescently labelled markers.Data from the assay component CCTE_Mundy_HCI_iCellGluta_NOG_NeuriteCount was analyzed at the endpoint CCTE_Mundy_HCI_iCellGluta_NOG_NeuriteCount in the positive analysis fitting direction relative to DMSO as the negative control and baseline of activity. Using a type of morphology reporter, loss-of-signal activity can be used to understand developmental effects.
Exposure starts 2 hours post-plating by adding 10 ul of the working solution to 90 ul of media in the wells for a 1/10 dilution. […] A Cellomics ArrayScan VTi HCS Reader is used for automated image acquisition and analysis of neurite outgrowth.

A short description of experiment [3]: CCTE_Mundy_HCI_iCellGluta_NOG_NeuronCount: CCTE's Neurite Outgrowth Assay in iCellGluta cells for Neuron Count, Mundy Lab (AID 2284340).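 Further: cells fixed about 48 h after compound addition.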 The procedure, abridged: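 Neuron count read by automated high-content imaging of Hoechst 33342 and betaIII-tubulin/Alexa Fluor-488 labelling in human iPSC glutamatergic neurons. Activity fitted relative to DMSO.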
Experiment [4] deals with SERPINA7 (gene 6906). The experiment is described as follows: CCTE_GLTED_hTBG: CCTE's human Thyroxine-binding Globulin (TBG) Inhibition Assay, Great Lakes Toxicology and Ecology Division (GLTED) Lab (AID 2284343).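 Further: active chemicals lower fluorescence versus DMSO baseline by displacing probe.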 The procedure, abridged: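 hTBG + test chem, 2 h; ANSA probe displacement; fluorescence readout ex380/em475; DMSO = neg ctrl/baseline; cell-free.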
Experiment [5] deals with TTR (gene 7276). The experiment is described as follows: CCTE_GLTED_hTTR_0.125uM: CCTE's human Transthyretin (hTTR) Inhibition Assay, with 0.125uM TTR, Great Lakes Toxicology and Ecology Division (GLTED) Lab (AID 2284431; active means hit-call score of the fitted dose curve at least 0.9, where 1 is the maximum; inactive means score below 0.9;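 further: hits lower the fluorescence signal relative to DMSO baseline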). The gist of the method:
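Fluorescence (380 ex, 475 em) reported the ANSA probe remaining bound to 0.125uM human transthyretin. Chemicals were incubated with the protein for 2 hours; activity was scored as loss of signal against DMSO negative control.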

Experiment [6] in a line: CCTE_Padilla_ZF_Score.General: CCTE's 144 Hour Post-fertilization zebrafish Assay Score for General Malformation, Padilla Lab (AID 2284411; active means hit-call score of the fitted dose curve at least 0.9, where 1 is the maximum; inactive means score below 0.9). The procedure, abridged: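 Wild-type zebrafish embryos were plated singly at 6-8 hpf in 10% Hanks' and exposed in sealed wells at 26C until rinsed on 5 dpf. At 6 dpf two blinded assessors scored mortality, hatching and malformations by stereomicroscopy; gain-of-signal versus DMSO.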

In the case of `CC(C)OP(=O)(OC(C)C)SCCNS(=O)(=O)c1ccccc1`, the molecule was called inactive in experiment [1] and in experiment [2]. For the molecule `CC(C)OP(=S)(OC(C)C)SCCNS(=O)(=O)c1ccccc1`, the outcome in experiment [1] was inactive. Besides, the concentration at half-maximal activity (AC50) in experiment [3] was active: 52 µM; in experiment [2], active: 28 µM.

For the molecule `Cc1cc([N+](=O)[O-])cc([N+](=O)[O-])c1O`, the results for the AC50 in experiment [4] and in experiment [5] were active: 43.7 µM and active: 0.0275 µM, respectively. As to `O=[N+]([O-])c1ccc([N+](=O)[O-])cc1`, in experiment [6], the call was inactive. In the case of `CCCCOP(OCCCC)OCCCC`, the concentration at half-maximal activity (AC50) in experiment [6] was active: 73.1 µM. As to `CC(C)CCCCCCCOP(OCCCCCCCC(C)C)Oc1ccccc1`, the AC50 in experiment [5] is active: 3.61 µM.
